Results published in PMC9816242, “Human metabolism and excretion kinetics of benzotriazole UV stabilizer UV-327 after single oral administration” (Archives of Toxicology, 2022).

Experiments:
[1] = UV-327 and metabolites in whole blood of volunteers after single oral administration of UV-327; settings: for tmax (time point of maximum blood level): single oral 0.3 mg/kg UV-327, n = 3; for t1/2 phase 1 (elimination half-life) / t1/2 phase 2 (elimination half-life): single oral 0.3 mg/kg UV-327, n = 3, mean ± SD; for t1/2 phase 2 (elimination half-life): terminal phase
[2] = UV-327 and metabolites in plasma of one volunteer after single oral administration of UV-327; settings: single oral 0.3 mg/kg UV-327, n = 1

Compound | tmax (time point of maximum blood level) [1] | t1/2 phase 1 (elimination half-life) [1] | t1/2 phase 2 (elimination half-life) [1] | maximum plasma level [2] | time of maximum plasma level [2]
2-(5-chloro-benzotriazol-2-yl)-4-(1-hydroxy-2-methylpropyl)-6-(tert-butyl)phenol [UV-327-4-mOH] | 6 h | 10.8 ± 0.3 h | 33.0 ± 0.2 h | 0.55 µg/L | 6 h
CC(C)(C)c1cc(-n2nc3ccc(Cl)cc3n2)c(O)c(C(C)(C)C)c1 [UV-327, 2-(5-chloro-benzotriazol-2-yl)-4,6-di-(tert-butyl)phenol] | – | 6.6 ± 0.3 h | 24.9 ± 1.9 h | 1261 µg/L | –
2-(5-chloro-benzotriazol-2-yl)-6-(1-hydroxy-2-methylpropyl)-4-(tert-butyl)phenol [UV-327-6-mOH] | 6 h | 9.9 ± 1.0 h | 29.0 ± 1.1 h | 0.58 µg/L | 6 h
